This passage reports Ki results from US20090304724A1 (IPSEN PHARMA S A S, published 2009).

Protein sequences, listed by entry. Tags and fused reporters are not part of them.
UniProt Q92847, whole entry: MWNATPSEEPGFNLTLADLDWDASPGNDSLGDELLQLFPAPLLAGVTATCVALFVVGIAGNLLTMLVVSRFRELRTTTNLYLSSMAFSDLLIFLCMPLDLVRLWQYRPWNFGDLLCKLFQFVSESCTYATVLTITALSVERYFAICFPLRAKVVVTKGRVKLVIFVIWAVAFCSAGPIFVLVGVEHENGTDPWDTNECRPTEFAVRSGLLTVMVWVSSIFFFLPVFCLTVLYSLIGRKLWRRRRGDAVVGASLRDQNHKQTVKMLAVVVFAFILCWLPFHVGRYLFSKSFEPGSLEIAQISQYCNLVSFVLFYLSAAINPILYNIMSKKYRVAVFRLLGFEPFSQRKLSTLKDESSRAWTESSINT

The target of this test is human growth hormone secretagogue receptor (human) (UniProt Q92847). As to the kind of experiment: (125I)ghrelin displacement, hGHS-R CHO-K1 membranes.
A word on the Ki: it is the equilibrium dissociation constant of an inhibitor or competing ligand from its target. Read a low Ki as a stronger hold on the target. On to “H-Apc-D-Bal-D-Trp-2-Thi-Lys-NH2 (peptide)”, for which the Ki came out at 0.36 nM. This counts as sub-nanomolar.

For H-Inp-D-Dip-D-Trp-Phe-NH2 (peptide), the Ki was determined as 105 nM. Against the preceding substance, the Ki is about 290-fold higher. With H-Inp-D-Trp-D-2-Nal(Ψ)-Pim (peptide) the figure was 182 nM.

In turn, “H-Inp-D-1-Nal-D-Trp-2-Thi-Apc-NH2 (peptide)” showed a Ki of 0.53 nM. With “H-Inp-D-Bal-D-Trp-2-Thi-Lys-NH2 (peptide)” the figure was 0.42 nM; with “H-Apc-D-1-Nal-D-2-Nal-Phe-Apc-NH2 (peptide)”, 1.71 nM. To H-Apc-D-Bal-D-Trp-Taz-Apc-NH2 (peptide) belongs 1.13 nM. With “H-Apc-D-Bal-D-2-Nal-Phe-Apc-NH2 (peptide)” the figure was 1.49 nM; with “H-Inp-D-1-Nal-D-Trp-Taz-Apc-NH2 (peptide)”, 1.19 nM. On to “H-Apc-D-1-Nal-D-Trp-Phe-Lys-NH2 (peptide)”, for which the Ki came to 0.42 nM. Compared with the last substance, the Ki is about 2.8-fold lower. With “H-Inp-D-1-Nal-D-Trp-Taz-Lys-NH2 (peptide)” the figure was 1.11 nM. To H-Inp-D-Bpa-D-Trp-Phe-Lys-NH2 (peptide) belongs 93.8 nM; to “H-Inp-D-2-Nal-D-Trp-Phe-Apc-NH2 (peptide)”, 0.64 nM. With “H-Apc-D-Bal-D-1-Nal-Phe-Apc-NH2 (peptide)” the figure was 3.48 nM; with H-Inp-D-Bip-D-Trp-Phe-Lys-NH2 (peptide), 1.35 nM. “H-Inp-D-2-Nal-D-Bpa-Phe-Lys-NH2 (peptide)” showed an inhibitory constant (Ki) of 419 nM. This Ki lies about 310-fold higher than the previous one.

Substance H-Apc-D-Bal-D-Trp-2-Thi-NH2 (peptide) had an inhibition constant (Ki) of 0.98 nM. Against the preceding substance, the Ki is about 430-fold lower.

In turn, H-Inp-D-Bal-D-Trp-Phe-NH2 (peptide) registered a Ki of 2.3 nM.

The substance H-Inp-D-2-Nal-D-Trp-Pff-NH2 (peptide) gave a Ki of 36.3 nM. As to H-Inp-D-2-Nal-D-Bal-Phe-NH2 (peptide), the Ki amounted to 27.4 nM.

H-Apc-D-2-Nal-D-Trp-Taz-NH2 (peptide) showed an inhibition constant (Ki) of 2.11 nM.

H-Inp-D-Dip-D-Trp-Phe-Lys-NH2 (peptide) registered a Ki of 46.8 nM. The substance H-Apc-D-1-Nal-D-Trp-2-Thi-NH2 (peptide) had a Ki of 0.73 nM. The substance “H-Inp-D-2-Nal-D-Trp-Pff-Lys-NH2 (peptide)” displayed a Ki of 25.4 nM. Substance H-Apc-D-Bal-D-Trp-Phe-Lys-NH2 (peptide) registered a Ki of 0.32 nM.

“H-Apc-D-2-Nal-D-Trp-Phe-Lys-NH2 (peptide)” showed an inhibitory constant (Ki) of 0.42 nM.

“H-Apc-D-1-Nal-D-Trp-2-Thi-Apc-NH2 (peptide)” registered a Ki of 0.46 nM.

H-Inp-D-Bal-D-Trp(Ψ)-Pim (peptide): the Ki was 48.7 nM. In the case of H-Apc-D-Bal-D-Trp-Taz-NH2 (peptide), the Ki was determined as 1.62 nM.

“H-Apc-D-1-Nal-D-Trp-2-Thi-Lys-NH2 (peptide)” showed a Ki of 0.29 nM. This Ki lies about 5.6-fold lower than the previous one. The substance “H-Apc-D-1-Nal-D-1-Nal-Phe-Apc-NH2 (peptide)” gave a Ki of 1.99 nM. To H-Apc-D-2-Nal-D-Trp-2-Thi-NH2 (peptide) belongs 0.95 nM. To “H-Apc-D-1-Nal-D-Trp-Phe-Apc-NH2 (peptide)” belongs 0.46 nM; to “H-Inp-D-1-Nal-D-Trp-Phe-Apc-NH2 (peptide)”, 0.36 nM. On to “H-Apc-D-1-Nal-D-Trp-Taz-Apc-NH2 (peptide)”, for which the Ki is 0.98 nM. On to H-Inp-D-2-Nal-D-Dip-Phe-NH2 (peptide), for which the Ki is 105 nM. Against the preceding substance, the Ki is about 110-fold higher. H-Inp-D-2-Nal-D-Trp-Taz-NH2 (peptide) had a Ki of 6.17 nM.
